From patent publication US20250361252A1 (EVER Neuro Pharma GmbH, priority 2022, published 2025)

What was measured:
[1] = In vitro stability in human liver S9 homogenate

Substance	conversion of apomorphine monophosphate to apomorphine [1]	solubility in water
apomorphine monophosphate	No conversion of prodrug observed	
Apomorphine Monophosphate Magnesium Salt [VIR-1-097-Mg]		Reduced solubility in water
